DC50 data for 17 compounds are collected here from patent US20240123073A1, “NOVEL RIPK1 KINASE TARGETING PROTACS AND METHODS OF USE THEREOF” (Baylor College of Medicine, priority 2020, published 2024).

Amino acid sequences for entries named in this document (tags omitted).
UniProt Q13546, whole entry: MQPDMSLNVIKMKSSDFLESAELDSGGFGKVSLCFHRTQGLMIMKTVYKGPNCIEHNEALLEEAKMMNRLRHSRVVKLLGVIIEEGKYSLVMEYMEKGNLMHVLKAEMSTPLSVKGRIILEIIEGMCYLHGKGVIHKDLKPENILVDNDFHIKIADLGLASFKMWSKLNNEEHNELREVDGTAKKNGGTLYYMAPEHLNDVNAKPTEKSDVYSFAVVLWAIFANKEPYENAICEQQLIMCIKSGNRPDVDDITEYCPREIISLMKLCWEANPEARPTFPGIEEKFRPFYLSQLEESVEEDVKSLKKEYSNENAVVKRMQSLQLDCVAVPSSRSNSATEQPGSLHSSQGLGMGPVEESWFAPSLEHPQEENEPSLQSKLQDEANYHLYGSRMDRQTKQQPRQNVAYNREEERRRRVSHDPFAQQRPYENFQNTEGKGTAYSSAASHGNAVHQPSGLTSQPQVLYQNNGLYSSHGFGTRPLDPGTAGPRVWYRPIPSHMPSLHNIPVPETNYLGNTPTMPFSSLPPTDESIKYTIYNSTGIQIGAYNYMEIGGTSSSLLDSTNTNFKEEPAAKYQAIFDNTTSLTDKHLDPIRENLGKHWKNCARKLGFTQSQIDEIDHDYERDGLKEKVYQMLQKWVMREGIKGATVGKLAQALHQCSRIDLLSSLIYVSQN

The assay addresses RIPK1 (Homo sapiens, UniProt Q13546). Briefly: RIPK1 degradation Western Blot assay. It counts as cell-based. The conditions noted are these: read-out: Degradation Activity (DC50, concentration at which 50% of RIPK1 kinase has been degraded), human cells, 24 h incubation at 37° C. For orientation: A western blot detects proteins with antibodies after separation by electrophoresis.

As to `Cn1c(=O)n(C2CCC(=O)NC2=O)c2ccc(CCC(=O)NCCCCC(=O)NCCCn3cc(-c4ccc5c(c4)CCN5C(=O)Cc4cccc(OC(F)(F)F)c4)c4c(N)ncnc43)cc21` (centres unmarked), the DC50 was in the range of 1000 to 10000 nM. Then `Nc1ncnc2c1c(-c1ccc3c(c1)CCN3C(=O)Cc1cccc(OC(F)(F)F)c1)cn2CCCNC(=O)CCCCCCCCNC(=O)C1CCN(c2ccc(C(=O)NC3CCC(=O)NC3=O)cn2)CC1` (centres unmarked), with 1000 to 10000 nM. Then `Nc1ncnc2c1c(-c1ccc3c(c1)CCN3C(=O)Cc1cccc(OC(F)(F)F)c1)cn2CCCCCCCNC(=O)CCCCCCCCCCNc1cccc2c1C(=O)N(C1CCC(=O)NC1=O)C2=O` (centres unmarked), with < 1000 nM; and `Cc1ncsc1-c1ccc([C@H](C)NC(=O)[C@@H]2C[C@@H](O)CN2C(=O)[C@@H](NC(=O)CCN2CCN(CCC(=O)NCCCn3cc(-c4ccc5c(c4)CCN5C(=O)Cc4cccc(OC(F)(F)F)c4)c4c(N)ncnc43)CC2)C(C)(C)C)cc1`, with < 1000 nM; and `Cc1ncsc1-c1ccc([C@H](C)NC(=O)[C@@H]2C[C@@H](O)CN2C(=O)[C@@H](NC(=O)CCCCn2cc(CCCC(=O)NCCCn3cc(-c4ccc5c(c4)CCN5C(=O)Cc4cccc(OC(F)(F)F)c4)c4c(N)ncnc43)nn2)C(C)(C)C)cc1`, with < 1000 nM. In the case of `Nc1ncnc2c1c(-c1ccc3c(c1)CCN3C(=O)Cc1cccc(OC(F)(F)F)c1)cn2CCCNC(=O)CCCCCCNC(=O)CN1CCC(c2ccc(NC3CCC(=O)NC3=O)cc2)CC1` (centres unmarked) it was < 1000 nM; in that of `Cc1ncsc1-c1ccc([C@H](C)NC(=O)[C@@H]2C[C@@H](O)CN2C(=O)[C@@H](NC(=O)CCCCC(=O)NCCCn2cc(-c3ccc4c(c3)CCN4C(=O)Cc3cccc(OC(F)(F)F)c3)c3c(N)ncnc32)C(C)(C)C)cc1`, 1000 to 10000 nM; in that of `Cc1ncsc1-c1ccc(C(CC(=O)NCCCCCCCCCCC(=O)NCCCn2cc(-c3ccc4c(c3)CCN4C(=O)Cc3cccc(OC(F)(F)F)c3)c3c(N)ncnc32)NC(=O)C2CC(O)CN2C(=O)C(NC(=O)C2(F)CC2)C(C)(C)C)cc1` (centres unmarked), < 1000 nM. As to `Cc1ncsc1-c1ccc([C@H](C)NC(=O)[C@@H]2C[C@@H](O)CN2C(=O)[C@@H](NC(=O)CCCCCn2cc(CCCCC(=O)NCCCn3cc(-c4ccc5c(c4)CCN5C(=O)Cc4cccc(OC(F)(F)F)c4)c4c(N)ncnc43)nn2)C(C)(C)C)cc1`, the DC50 is < 1000 nM. Then `Nc1ncnc2c1c(-c1ccc3c(c1)CCN3C(=O)Cc1cccc(OC(F)(F)F)c1)cn2CCCNC(=O)CCCCCCCCCCNC(=O)COc1cccc(C2CCC(=O)NC2=O)c1` (centres unmarked), with 1000 to 10000 nM; and `O=C1CCC(N2C(=O)c3cccc(NCCOCCOCCOCCOCCNC(=O)c4ccc(-c5cc(N6CCC(C(=O)N7N=CCC7c7ccccc7)CC6)ncn5)cc4)c3C2=O)C(=O)N1` (centres unmarked), with > 10000 nM. Then `Cn1c(=O)n(C2CCC(=O)NC2=O)c2ccc(CCC(=O)NCCCCCCCCC(=O)NCCCn3cc(-c4ccc5c(c4)CCN5C(=O)Cc4cccc(OC(F)(F)F)c4)c4c(N)ncnc43)cc21` (centres unmarked), with < 1000 nM; and `Nc1ncnc2c1c(-c1ccc3c(c1)CCN3C(=O)Cc1cccc(OC(F)(F)F)c1)cn2CCCNC(=O)CCCCCCCCCCNC(=O)C1CCN(c2ccc(C(=O)NC3CCC(=O)NC3=O)cn2)CC1` (centres unmarked), with 1000 to 10000 nM.

Take `Nc1ncnc2c1c(-c1ccc3c(c1)CCN3C(=O)Cc1cccc(OC(F)(F)F)c1)cn2CCCNC(=O)CCCCCCCCNC(=O)CN1CCC(c2ccc(NC3CCC(=O)NC3=O)cc2)CC1` (centres unmarked): the DC50 was < 1000 nM.

Regarding `Cc1ncsc1-c1ccc([C@H](C)NC(=O)[C@@H]2C[C@@H](O)CN2C(=O)[C@@H](NC(=O)CCCCCCCCCCC(=O)NCCCn2cc(-c3ccc4c(c3)CCN4C(=O)Cc3cccc(OC(F)(F)F)c3)c3c(N)ncnc32)C(C)(C)C)cc1`, the DC50 was < 1000 nM. Take `Cc1ncsc1-c1ccc(C(CC(=O)NCCCCCCC(=O)NCCCn2cc(-c3ccc4c(c3)CCN4C(=O)Cc3cccc(OC(F)(F)F)c3)c3c(N)ncnc32)NC(=O)C2CC(O)CN2C(=O)C(NC(=O)C2(F)CC2)C(C)(C)C)cc1` (centres unmarked): the DC50 is < 1000 nM. Consider `Cc1ncsc1-c1ccc([C@H](CC(=O)NCCCCCCCCCCC(=O)NCCCCCn2cc(-c3ccc4c(c3)CCN4C(=O)Cc3cccc(OC(F)(F)F)c3)c3c(N)ncnc32)NC(=O)[C@@H]2C[C@@H](O)CN2C(=O)[C@@H](NC(=O)C2(F)CC2)C(C)(C)C)cc1`, for which the DC50 was < 1000 nM.
